The numbers were not newly measured in patent publication US4555403A, “Pharmacologically active peptides and medicaments containing the same” (priority 1979, dated 1985), which cites them from elsewhere.

The data set deals with Pronase E. Merck. The following applies: short incubation period; cited from earlier work.

Regarding leucine-encephalin, the “pharmacological (opiate-like) activity after treatment in vitro with proteases” value is recorded as “lose their pharmacological activity”.
Turning to methionine-encephalin, the “pharmacological (opiate-like) activity after treatment in vitro with proteases” value is “lose their pharmacological activity”.
